From patent US9303006B2, “Line leaf inula flower lactone A and methods for preparing and using the same for treating myocarditis” (SHANXI ZHENDONG PILOT BIOLOGICAL SCIENCE AND TECHNOLOGY …, priority 2012, dated 2016) come the findings set out here.

What all share (assay type): in vivo, Balb/c male mice
The test system of assay [1] is coxsackie B group virus B3 type Nancy strains (CVB3). Briefly: CVB3-infected mice myocardial virus measured on cell model at 7th day (heart homogenate 1:10, cell lesions). The settings on record: IFN 15000 units per mouse s.c. The procedure:
(§1) The thin Leaf inula flower lactone A compound from Example 1 was used; a viral strain: coxsackie B group virus B3 type Nancy strains (CVB3) was used at a virus infection dose of 10LD50 virus 0.2 ml through abdominal cavity infection in mice. The animals used were Balb/c male mice, 13 g to 15 g, from Shanghai West S&P-Bick Experimental Animals Co., Ltd. with animal number: qualified SCXX (Shanghai), 2008-0016. The positive control medicine was human recombinant interferon alpha 2 a, YinTeFen, Shenyang Junior Pharmaceutical co., Ltd., Product batch number 20090708.
(§2) Preparation and administration: the line leaf inula flower lactone A compound was weighed, ground, and suspended in 0.5% CMC (carboxymethyl cellulose) mixture at 10 mg/ml solution. Oral administration of the medicine was conducted for once per day, every time at 0.5 ml, for 7 days.
(§3) The experimental groups included (1) the viral infection group, each group had 10 mice, were given 0.5% CMC solution and virus. (2) The normal control group, each group had 10 mice, were given 0.5% CMC solution only. (3) Positive drug control group, each group had 10 mice, subcutaneous injections of recombinant interferon alpha 2 a suspended in 0.5% CMC solution, 15000 units per mouse, once every 2 days injection, a total of four injections. (4) High dose drug treatment group of 100 mg/kg, 10 mice in each group, oral give line leaf inula flower lactone A 50 mg/kg dose in drug treatment group, each group of 10, only oral give leaves Inula flowers lactone A. (5) Drug treatment of low dose group of 10 mg/kg, 10 in each group, oral give leaves Inula flowers lactone A. Observation parameters included life, neutralizing antibodies, virus protection, weight drops, myocardial tissue pathological slices, echocardiogram.
(§4) Another group of 10 mice, with infection, was weighed after 7 days. Four mice were taken to detect cardiac function, and killed and dissected for collecting blood to test neutralizing antibody, heart weighing calculation index, and grinding the heart, with three resistance MEM fluid containing 10%. 1:10 dilution, on the cell model to detect coxsackie virus in mice drop degree (to observe the myocardial cell lesions) separation of virus infection.

For assay [2] the test system is unchanged. The assay is described as follows: Life protection (survival time) of mice infected by CVB3. As to conditions: subcutaneous 15000 units per mouse, four injections. As to the method: as §1, §2
The experimental groups included (1) the viral infection group, each group had 10 mice, were given 0.5% CMC solution and virus. (2) The normal control group, each group had 10 mice, were given 0.5% CMC solution only. […]
Test process was that after virus infection in mice (except the normal control group) for 2 hours, total drug delivery was performed 7 days in a row, observation was conducted until 14 days. The incidence and deaths were recorded every day, and the average survival days prolongation of life were calculated with p value calculation.

Assay [3] concerns CVB3-Infected Mice. Briefly: Live body weight in CVB3-infected mice. As to conditions: IFN 15000 units per mouse s.c. The procedure:
as §1, §2, §3, §4

Where “and” joins values, the source holds several entries; their conditions need not be identical. Equal values may be shown once. Entries after “also recorded” stand apart in the source; their conditions may differ.

Take “IFN: positive control medicine, human recombinant interferon alpha 2 a, YinTeFen [reference compound]”: the “1:10 (cell lesions from myocardial homogenate)” value in assay [1] (individual mice NO 1-5) is reported as “± (plus or minus: 0%); also recorded: + (: + 50%)”. Moreover, in assay [1] (individual mice NO 1-5), the Lesions rate % was 25% and 50% (4×). Besides, the “Average disease rate %” value in assay [1] (virus control 90%) was determined as 45%. The Reduce lesions in assay [1] (vs virus control) worked out at 50.00%. Moreover, the “survival time compared with the virus control group” value in assay [2] is on record as “no significant difference”. Besides, the “Survival time M” value in assay [2] (once every 2 days, CVB3-infected mice) came out at 8.4 days. Further, the “Live body weight M ± SD” value was found to be 14.80 ± 1.50 in assay [3] (4 days), 15.82 ± 0.47 in assay [3] (8 days), 18.07 ± 0.88 in assay [3] (14 days) and 14.53 ± 0.59 in assay [3] (Before).
